Laboratory results: patent US20100132066A1, “AGROBACTERIUM-MEDIATED METHOD FOR PRODUCING TRANSFORMED PLANT WITHOUT SELECTION STEP” (JAPAN TOBACCO INC., priority 2007, published 2010)

Tested on: Immature embryos (variety: A188)
Assay: Effect of dicamba and 2,4-D in coculture medium on regeneration (Example 2, FIG. 3)
Assay type: cell-based, Maize
Conditions: coculture medium with this auxin alone (1.5 mg/l), selection step eliminated, LBA4404 (U0009B)

Work on O=C(O)COc1ccc(Cl)cc1Cl [2,4-D, 2,4-dichlorophenoxyacetic acid] yielded a regeneration rate of 15.8%.
